Data published in patent publication US8158579B2, “Fusion protein of an exendin to modified transferrin” (BioRexis Pharmaceutical Corporation, priority 2006, dated 2012).

Target: T1, rat GLP-1 receptor (Rattus norvegicus, UniProt P32301)
T1 construct: expressed in transfected cells; host or cells: CHO (CHO-GLP-1R)
T1 sequence (P32301 22-463): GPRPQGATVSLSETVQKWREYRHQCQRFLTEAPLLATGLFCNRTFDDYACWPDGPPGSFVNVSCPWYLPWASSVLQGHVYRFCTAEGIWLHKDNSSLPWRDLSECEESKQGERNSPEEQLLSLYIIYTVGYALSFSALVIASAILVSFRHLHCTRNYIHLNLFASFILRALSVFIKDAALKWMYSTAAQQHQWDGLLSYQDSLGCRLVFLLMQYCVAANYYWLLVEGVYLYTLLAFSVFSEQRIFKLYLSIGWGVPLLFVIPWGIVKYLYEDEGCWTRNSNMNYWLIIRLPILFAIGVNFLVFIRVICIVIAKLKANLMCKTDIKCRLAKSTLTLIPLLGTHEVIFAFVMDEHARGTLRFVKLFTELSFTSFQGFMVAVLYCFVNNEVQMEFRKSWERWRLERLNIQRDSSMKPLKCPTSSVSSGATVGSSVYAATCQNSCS
Test: cAMP potency assay in CHO cells transfected with the rat GLP-1 receptor (CHO-GLP-1R)
Assay type: cell-based
Details: cAMP accumulation in CHO-GLP-1R cells
Description: Potency was calculated from the measured response of cAMP produced as a result of GLP-1 receptor-mediated ligand binding in CHO cells transfected with the rat GLP-1 receptor (CHO-GLP-1R) following incubation with samples. 96-well tissue culture plates were seeded with CHO-GLP-1R cells and cultured overnight. The following day, the cells were rinsed with Krebs-Ringer buffer (KRB) and incubated in KRB containing the phosphodiesterase inhibitor 3-isobutyl-1-methylxanthine (IBMX, 2 mM) to inhibit intracellular enzymes that process cAMP. Serial dilutions of test compounds and controls were prepared in KRB/IBMX and triplicate wells of cells were inoculated with samples and controls. After incubation, individual sample lysates were then assayed to measure the increase in intracellular cAMP levels using a competition-based fluorescent immunoassay (CatchPoint® cAMP Fluorescent Assay Kit, Molecular Devices Corp., Sunnyvale, Calif.). The amount of cAMP accumulation in cells after GLP-1 receptor-mediated ligand binding is used to determine bioactivity and relative potency.

Substance: GLP-1(7-37,A8G,K34A) (PEAPTD)2 (SEQ ID NO: 5) mTf fusion protein: GLP-1(7-37) with A8G, K34A fused via (PEAPTD)2 linker to modified transferrin mTf; comparator fusion protein (PEAPTDPEAPTD; chains of the parent or of the whole protein) [reference compound]
- EC50: 1.3 nM
